Data taken from publication PMC8654284 (Science Advances, 2021).

Chains of the proteins cited; added tags and fusions are not shown.
UniProt P25103, whole entry F25Y: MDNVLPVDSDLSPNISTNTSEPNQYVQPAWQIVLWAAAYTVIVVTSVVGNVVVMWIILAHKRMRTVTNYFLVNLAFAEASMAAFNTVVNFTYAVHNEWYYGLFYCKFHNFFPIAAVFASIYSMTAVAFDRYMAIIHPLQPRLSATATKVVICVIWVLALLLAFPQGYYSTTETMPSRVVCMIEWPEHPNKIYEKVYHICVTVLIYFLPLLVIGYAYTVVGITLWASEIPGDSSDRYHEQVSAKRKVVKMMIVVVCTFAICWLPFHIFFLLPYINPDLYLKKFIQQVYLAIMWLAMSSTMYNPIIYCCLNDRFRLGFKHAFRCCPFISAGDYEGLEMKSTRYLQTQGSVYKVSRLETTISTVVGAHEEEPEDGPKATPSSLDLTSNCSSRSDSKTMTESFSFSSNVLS
UniProt P25103, whole entry Y92F: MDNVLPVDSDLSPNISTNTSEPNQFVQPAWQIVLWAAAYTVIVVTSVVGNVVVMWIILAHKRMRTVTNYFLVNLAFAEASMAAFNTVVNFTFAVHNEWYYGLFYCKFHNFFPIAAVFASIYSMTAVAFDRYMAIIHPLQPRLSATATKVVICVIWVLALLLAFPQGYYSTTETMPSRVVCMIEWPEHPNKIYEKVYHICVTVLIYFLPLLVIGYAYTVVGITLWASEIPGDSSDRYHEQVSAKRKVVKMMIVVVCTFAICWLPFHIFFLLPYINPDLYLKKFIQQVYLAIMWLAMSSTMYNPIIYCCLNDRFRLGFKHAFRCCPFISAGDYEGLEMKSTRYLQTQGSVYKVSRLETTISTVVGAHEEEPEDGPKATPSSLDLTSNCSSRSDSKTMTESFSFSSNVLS

Assays:
NK1R F25Y = NK1R F25Y (Homo sapiens, UniProt P25103, F25Y); experiment: Whole-cell SP-HL488 saturation binding, F25Y; conditions: mutation F25Y vs wt; measured with SP-HL488
NK1R Y92F = NK1R Y92F (Homo sapiens, UniProt P25103, Y92F); experiment: Whole-cell SP-HL488 saturation binding, Y92F; conditions: mutation Y92F vs wt; measured with SP-HL488

With RPKPQQFFGLM [SP, substance P] the “change in binding affinity” value (NK1R F25Y) was “subtle change in binding affinity” and the SP binding affinity (NK1R Y92F) was “unchanged”.
